From patent publication EP2468858B1

Biological target: FGF-21 receptor on differentiated 3T3-L1 fat cells (mouse)
Test: cell-based or functional assay

Row | Substance | Glucose uptake CPM of 3T3-L1 fat cells at 0 nM protein (baseline) [CPM] | Glucose uptake CPM of 3T3-L1 fat cells at 0.03 nM protein [CPM] | Glucose uptake CPM of 3T3-L1 fat cells at 0.15 nM protein [CPM] | Glucose uptake CPM of 3T3-L1 fat cells at 0.8 nM protein [CPM] | Glucose uptake CPM of 3T3-L1 fat cells at 4 nM protein [CPM] | Glucose uptake CPM of 3T3-L1 fat cells at 20 nM protein [CPM] | Glucose uptake CPM of 3T3-L1 fat cells at 100 nM protein [CPM]
1 | Met-Exendin4-(GGGGS)3-FGF21 fusion protein expressed in E. coli | 1850 | 1900 | 2210 | 2320 | 3840 | 4800 | 4880
2 | Exendin4-(GGGGS)3-FGF21 fusion protein expressed in yeast (Pichia pastoris) | 2130 | 2030 | 2240 | 2400 | 4330 | 5390 | 5510
